Laboratory results: PMC8166343 (Biochemical Journal, 2021)

The chains behind the UniProt entries cited, without tags or fusion partners. Residues count along the entry.
UniProt O75151, 1-451 limits assumed: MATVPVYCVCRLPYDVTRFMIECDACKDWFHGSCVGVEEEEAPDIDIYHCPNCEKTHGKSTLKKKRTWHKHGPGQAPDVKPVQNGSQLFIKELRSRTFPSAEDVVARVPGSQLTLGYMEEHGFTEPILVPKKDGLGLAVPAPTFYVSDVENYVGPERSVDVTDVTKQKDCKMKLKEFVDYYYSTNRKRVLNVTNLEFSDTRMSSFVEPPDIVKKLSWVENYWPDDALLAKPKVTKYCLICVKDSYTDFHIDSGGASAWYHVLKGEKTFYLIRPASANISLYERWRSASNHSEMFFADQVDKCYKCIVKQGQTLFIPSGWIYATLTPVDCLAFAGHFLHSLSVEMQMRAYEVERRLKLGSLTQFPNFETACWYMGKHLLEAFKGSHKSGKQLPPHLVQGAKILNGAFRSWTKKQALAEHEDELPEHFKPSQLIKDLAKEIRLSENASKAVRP

What was measured:
PHF2 PHD = format: binding; conditions: 1 h, 4°C; pH 7.5
ING2 PHD = format: binding; conditions: 1 h, 4°C; pH 7.5
ING3 PHD = format: binding; conditions: 1 h, 4°C; pH 7.5
SPIN1 TUDOR = format: binding; conditions: 1 h, 4°C; pH 7.5
PHF2 (residues 1–451) = PHF2 (residues 1–451) (Homo sapiens, UniProt O75151); conditions: read-out: binding affinity (KD); PHF2 fragment (residues 1–451) containing PHD domain and Jumonji domain; H3K4me3 peptide; ref [36]; cited from earlier work

Substance: ARTK(me3)QTARKSTGGKAPRK-biotin [H3 K4me3, reference compound]
- pull-down of GST-PHF2 PHD (PHF2 PHD): strongly interacted
- pull-down of GST-ING2 PHD (ING2 PHD): recognized
- pull-down of GST-ING3 PHD (ING3 PHD): methylation-dependent interactions
- pull-down of GST-SPIN1 TUDOR (SPIN1 TUDOR): interacted
- Kd (PHF2 (residues 1–451)): 230 nM
